{
  "sequences": {"note": "Amino acid sequences for entries named in this document (tags omitted).", "UniProt P34972, whole entry": "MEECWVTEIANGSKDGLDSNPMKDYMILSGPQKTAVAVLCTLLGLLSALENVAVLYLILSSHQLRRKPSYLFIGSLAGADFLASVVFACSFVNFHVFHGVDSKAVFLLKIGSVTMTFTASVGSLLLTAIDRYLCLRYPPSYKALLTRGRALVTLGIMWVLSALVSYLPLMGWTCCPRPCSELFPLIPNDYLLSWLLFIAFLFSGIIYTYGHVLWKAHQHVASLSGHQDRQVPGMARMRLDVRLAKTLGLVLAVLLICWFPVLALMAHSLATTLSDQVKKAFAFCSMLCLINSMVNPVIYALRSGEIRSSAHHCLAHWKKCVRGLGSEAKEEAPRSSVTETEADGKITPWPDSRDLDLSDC"},
  "source": "patent US20120172339A1",
  "about": "“ANGIOGENIC RESORCINOL DERIVATIVES” (Northeastern University, priority 2009, published 2012)",
  "target": "CB2 cannabinoid receptor (Homo sapiens, UniProt P34972)",
  "assay": "CB2 receptor binding affinity",
  "method": "Some disclosed compounds were tested for CB1 and CB2 receptors binding affinity (Table 5). As used herein “binding affinity” is represented by the Ki value. The Ki value is the affinity constant and describes the affinity of the compound for the receptor. The lower the Ki value, the higher the affinity of the compound for the receptor. A detailed description of the methods used to test “binding affinity” of compounds is given in Makriyannis, et al., US 2007, 0135388 and in Papahatjis, et al. J. Med. Chem. (2007) 4048, the content of each of which is hereby incorporated by reference.",
  "data": [
    {"smiles": "C=C(C)[C@@H]1CCC(C)=C[C@H]1c1c(O)cc(CCCCC)cc1O", "note": "(relative stereo) [Compound 3.2, (−)-2-[3-3,4-trans-p-Menthadien-(1,8)-yl]-5-pentylresorcinol, reference compound]", "values": [
      {"measurement": "Ki", "result": 0.286, "unit": "µM"}
    ]}
  ]
}
